From publication PMC3196589, “Fluorescent Peptide Biosensor for Probing the Relative Abundance of Cyclin-Dependent Kinases in Living Cells” (PLoS ONE, 2011)

The chains behind the UniProt entries cited, without tags or fusion partners.
UniProt P08515, whole entry: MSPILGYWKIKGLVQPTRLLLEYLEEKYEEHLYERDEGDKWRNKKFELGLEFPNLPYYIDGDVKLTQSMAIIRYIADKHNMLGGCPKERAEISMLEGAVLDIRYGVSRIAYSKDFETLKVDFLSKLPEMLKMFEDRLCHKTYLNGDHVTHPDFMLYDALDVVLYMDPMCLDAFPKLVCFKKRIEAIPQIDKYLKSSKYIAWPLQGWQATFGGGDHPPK

How the values were obtained:
GST = GST (Schistosoma japonicum, UniProt P08515); experiment: Steady-state fluorescence titration of FITC-labelled peptide (specificity control); format: binding; details: 200 nM FITC-labelled peptide, potassium phosphate buffer pH 7.2, 150 mM NaCl, 25°C
MBP = MBP (Escherichia coli, UniProt P0AEX9); experiment: as above; format: binding; details: 200 nM FITC-labelled peptide, potassium phosphate buffer pH 7.2, 150 mM NaCl, 25°C
GST-Cyclin A = biological target: T1, GST-Cyclin A (Homo sapiens, UniProt P20248); experiment: Steady-state fluorescence titration of FITC-labelled peptide; format: binding; details: 200 nM FITC-labelled peptide, potassium phosphate buffer pH 7.2, 150 mM NaCl, 25°C, ex 485/em 520 nm, quadratic fit
T1 construct: made in house; host or cells: E. coli

GST-CDK2 = biological target: T2, GST-CDK2 (Homo sapiens, UniProt P24941); experiment: as above; format: binding; details: 200 nM FITC-labelled peptide, potassium phosphate buffer pH 7.2, 150 mM NaCl, 25°C, ex 485/em 520 nm, quadratic fit
T2 construct: made in house; host or cells: E. coli

[1] = test system: endogenous CDK/Cyclin complexes from HS68 cell extracts; experiment: Pulldown from cell extracts with immobilized peptide; format: binding, human; details: Western blotting
Protocol: Cell culture media, serum and antibiotics were purchased from Invitrogen. HeLa, HS68, A549, MCF-7 and U2OS cells were obtained from ATCC and were cultured in Dulbecco's Modified Eagle Medium (DMEM)+Glutamax supplemented with 10% Fetal Calf Serum (FCS), 1 mM penicillin and 1 mM streptomycin at 37°C in an atmosphere containing 5% CO2. HT2-19 cells, provided by Dr. A.Porter, were cultured in DMEM supplemented with non essential amino acids, antibiotics, sodium pyruvate, glutamine, and 10% FCS and grown with 50 uM isopropyl-thiogalactoside (IPTG) for maximal induction of CDK1 [28]. Cell extracts were prepared in lysis buffer containing 50 mM TrisHCl, pH 7.4, 150 mM NaCl, 0.1% NP40, 0.1% Deoxycholate, 2 mM EDTA, 1 mM phenylmethlsulfonyl fluoride (PMSF), CompleteTM protease inhibitors (Roche), 50 mM NaF, 40 mM β-Glycero-phosphate, 1 mM Na3VO4 and normalized following spectrophotometric dosage at 280 nm. For pulldown experiments, CDKSENS or Ctrl peptide were crosslinked to CNBr Sepharose beads, then incubated with equal concentrations of HeLa cell extracts for 1 hr. Samples were then processed for SDS-PAGE and CDK, Cyclin retention was detected by Western blotting. […]

[2] = test system: CDK/Cyclins in U20S cells; experiment: Live-cell ratiometric quantification of CDKSENS-Cy3/Ctrl-Cy5 fluorescence; format: cell-based; details: U20S compared to HeLa
Protocol: Cell culture media, serum and antibiotics were purchased from Invitrogen. HeLa, HS68, A549, MCF-7 and U2OS cells were obtained from ATCC and were cultured in Dulbecco's Modified Eagle Medium (DMEM)+Glutamax supplemented with 10% Fetal Calf Serum (FCS), 1 mM penicillin and 1 mM streptomycin at 37°C in an atmosphere containing 5% CO2. HT2-19 cells, provided by Dr. A.Porter, were cultured in DMEM supplemented with non essential amino acids, antibiotics, sodium pyruvate, glutamine, and 10% FCS and grown with 50 uM isopropyl-thiogalactoside (IPTG) for maximal induction of CDK1 [28]. […] Samples were then processed for SDS-PAGE and CDK, Cyclin retention was detected by Western blotting. […]
CDKSENS-Cy3 and Ctrl-Cy5 were complexed individually with CADY2 and codelivered into cells. Live-cell imaging acquisitions were substracted for background signal corresponding to minimal fluorescence levels using Metamorph. […] Regions of interest (ROI) corresponding to 10–15 cells in which fluorescence appeared homogeneous were designed and the mean grey levels of fluorescence for each channel (Cy3 and Cy5) were quantified within these ROIs. For each experiment, and the mean ratiometric value of CDKSENS-Cy3/Ctrl-Cy5 was calculated from 3–4 different ROIs. Each experiment was performed 3–4 times to assess the robustness of the quantification strategy. […]

[3] = biological target: recombinant CDKs and cyclins; experiment: Fluorescence titration with recombinant CDKs and cyclins (summary statements); format: binding; details: FITC label, from titration curves, read-out: Dissociation constant, CDKs (range)
GST-CDK2/Cyclin A = biological target: T3, GST-CDK2/Cyclin A (Homo sapiens, UniProt P20248+P24941); experiment: Steady-state fluorescence titration of FITC-labelled peptide; format: binding; details: comparison in words
T3 construct: made in house; host or cells: E. coli

MBP-Cyclin B1 = MBP-Cyclin B1 (Homo sapiens, UniProt P14635); details: relative to other cyclins

Molecule: CC(C)C[C@H](NC(=O)[C@H](CCCNC(=N)N)NC(=O)[C@H](CCCNC(=N)N)NC(=O)[C@H](CCCCN)NC(=O)[C@H](C)NC(=O)[C@H](CO)NC(=O)CNC(=O)[C@H](C)NC(=O)[C@@H](NC(=O)[C@@H]1CCCN1C(=O)[C@H](CO)NC(=O)[C@H](CSC(=S)Nc1ccc2c(c1)C(=O)OC21c2ccc(O)cc2Oc2cc(O)ccc21)NC(=O)[C@H](Cc1ccc(O)cc1)NC(=O)[C@H](CCCNC(=N)N)NC(=O)[C@H](CCC(=O)O)NC(=O)[C@H](Cc1c[nH]cn1)NC(=O)[C@@H](NC(=O)[C@H](CCCNC(=N)N)NC(=O)[C@H](CCCCN)NC(=O)[C@H](CCCNC(=N)N)NC(=O)[C@@H]1CCCN1C(=O)CNC(=O)[C@H](C)NC(=O)[C@H](Cc1c[nH]cn1)NC(=O)[C@@H](N)Cc1c[nH]cn1)C(C)C)[C@@H](C)O)C(=O)N[C@@H](Cc1ccccc1)C(=O)NCC(=O)N[C@@H](CCC(=O)O)C(=O)N[C@@H](CC(=O)O)C(=O)O [CDKSENS-FITC]
Kd (GST): no binding | Kd (MBP): no binding

Kd (GST-Cyclin A): no binding | Kd (GST-CDK2): no binding
Molecule: VESSDTIDNVKSKIQDKEGC [Ctrl]

Molecule: HHAGPRKRVHERYCSPTAGSAKRRLFGED [CDKSENS]
levels of all CDK/Cyclin complexes retained, HS68 relative to HeLa [1]: net reduction | difference in CDKSENS-Cy3/Ctrl-Cy5 ratio, U20S vs HeLa [2]: essentially identical values | Kd [3]: 0.1 to 0.2 µM | affinity for CDK2-cyclinA complex versus monomeric CDK2 or cyclin A (GST-CDK2/Cyclin A): significantly higher affinity | affinity for cyclin B lower than other cyclins (MBP-Cyclin B1): 7–8 fold

One block for each molecule: values may come before it. No end group written: not given here.
